The record followed here is PubChem BioAssay AID743126 (The Scripps Research Institute Molecular Screening Center, 2013).

Sequences of proteins named here, by UniProt entry; tags and fusion partners are left off. A change or cut given only in a name is not applied to a line headed by its entry.
UniProt Q9NZ20: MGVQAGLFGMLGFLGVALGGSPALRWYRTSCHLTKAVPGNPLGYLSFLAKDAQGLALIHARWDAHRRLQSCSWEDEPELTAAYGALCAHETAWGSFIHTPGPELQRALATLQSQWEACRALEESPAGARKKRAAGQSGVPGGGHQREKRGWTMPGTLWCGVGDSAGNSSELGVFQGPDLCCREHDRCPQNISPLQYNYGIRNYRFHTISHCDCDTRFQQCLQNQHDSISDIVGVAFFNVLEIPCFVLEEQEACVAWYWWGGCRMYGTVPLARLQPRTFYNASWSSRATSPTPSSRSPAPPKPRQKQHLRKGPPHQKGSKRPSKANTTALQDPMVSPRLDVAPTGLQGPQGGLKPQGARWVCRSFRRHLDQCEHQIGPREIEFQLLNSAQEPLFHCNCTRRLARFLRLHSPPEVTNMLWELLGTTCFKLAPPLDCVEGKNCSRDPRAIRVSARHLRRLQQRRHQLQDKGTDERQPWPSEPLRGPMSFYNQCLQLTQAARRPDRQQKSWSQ

The entries are a selection whose mix differs from that of the whole data set. Active and inactive are the calls of the source.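 Rule for the calls: active = inhibition above mean plus 3 SD of compounds lying within the high and low control bounds (cut at about 19% in these data); inactive = the rest.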

The experiment concerns the target Group 3 secretory phospholipase A2 (Homo sapiens) (UniProt Q9NZ20). Briefly: human group III sPLA2 inhibitors, primary screen, biochemical, QFRET, BODIPY PC-A2 liposome substrate (AID 743126).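 Note: 0% = median of test compound wells and 100% = no enzyme DMSO wells.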 The following applies: QFRET BODIPY PC-A2 liposome hydrolysis, fluorescence; at 12.2 µM; hits give high values.
Consider `CCC1=CC2Cc3nc4ccc(Cl)cc4c(N)c3C(C1)C2` (configuration not stated), for which the inhibition – broadly, the relative decrease from the control value, in per cent – was inactive: -7.16%.

For `CCOP(=O)(Nc1ccc(C)cn1)OCC`, the inhibition is inactive: 2.05%.

Turning to `CN(CCCl)Cc1cc(Cl)c(NC2=NCCN2)c(Cl)c1`, the inhibition is inactive: 1.28%.

Regarding `CC(C)(C)C(=O)NC(Sc1ncccn1)C(Cl)(Cl)Cl` (configuration not stated), the inhibition was inactive: 17.1%.

Take `O=P1(N(CCCl)CCCl)NCCC(C(F)(F)F)O1` (configuration not stated): the inhibition was inactive: 3.16%.

As for `Clc1n[nH]nc1-c1nn[nH][15n]1`, the inhibition is inactive: 0.12%.

`COc1ccccc1CNC(=O)COC(=O)C(O)(c1ccccc1)c1ccccc1`: the inhibition is inactive: -0.13%.

`CN(C(=O)Cc1ccc(Cl)c(Cl)c1)C1CCCC[C@@H]1N1CCCC1` (some centres not stated): the inhibition is inactive: 1.84%.

With `CC(C)/C=N\N=C(\N)N[N+](=O)[O-]`, the inhibition is inactive: -0.78%.

In the case of `CN(C(=O)Cc1ccc(Cl)c(Cl)c1)[C@@H]1CCCC[C@H]1N1CCCC1`, the inhibition was inactive: 10.3%.

In the case of `CC1(CBr)Cn2c(nc3ccccc3c2=O)S1` (configuration not stated), the inhibition is inactive: 3.32%.

For the molecule `O=C(OC1CN2CCC1CC2)c1ccc(Cl)cc1` (configuration not stated), the inhibition is inactive: 12.3%.

Consider `CS(=O)(=O)c1ccc(Cl)c(NC(=O)COC(=O)C(O)(c2ccccc2)c2ccccc2)c1`, for which the inhibition is inactive: -10.9%.

On to `O=[As](O)(O)c1cccnc1`, for which the inhibition was inactive: -0.17%.

With `COc1cc(C(=O)NCC2(N3CCOCC3)CCCCC2)cc(Cl)c1OC(C)C`, the inhibition is inactive: 6.1%.

With `Cc1cccc(OCC(=O)OC2CN3CCC2CC3)c1` (configuration not stated), the inhibition is inactive: -3.77%.

In the case of `O=[As](O)(c1cccc(O)c1)c1cccc(O)c1`, the inhibition was inactive: -4.03%.

On to `Cc1ccc(NCCc2c([N+](=O)[O-])cc([N+](=O)[O-])cc2[N+](=O)[O-])cc1`, for which the inhibition was inactive: 1.01%.

Consider `Nc1cccc2c([As](=O)(O)O)cccc12`, for which the inhibition is inactive: -39.8%.

Take `CCCOP(=S)(Nc1nc(N)cc(=O)[nH]1)OCCC`: the inhibition is inactive: 3.51%.

Turning to `CCOP(=O)(Nc1cccc2ccccc12)OCC`, the inhibition was inactive: 0.77%.

For the molecule `COc1cc(C2NCCC3(OCCO3)C2(C)C)cc(OC)c1OC` (configuration not stated), the inhibition is inactive: 0.56%.

For the molecule `O=P(Nc1nccs1)(Oc1ccccc1)Oc1ccccc1`, the inhibition was inactive: -7.9%.

Consider `CCOP1(=S)c2c(C)nn(CCC#N)c2N=C(c2ccccc2F)N1C` (configuration not stated), for which the inhibition was inactive: 1.78%.

For the molecule `Nc1ccccc1[As](=O)(O)c1ccccc1`, the inhibition is inactive: -0.25%.

Regarding `O=C(O)COc1ccc([As](=O)(O)O)cc1[N+](=O)[O-]`, the inhibition is inactive: -0.74%.

As to `NC(=O)Nc1ccc([As](=O)(O)O)cc1`, the inhibition is inactive: 3.31%.

In the case of `CCOP1(=S)c2c(C)nn(CCC#N)c2N=C(c2ccc(F)cc2)N1C` (configuration not stated), the inhibition was inactive: -0.48%.

For `CN(C(=O)Cc1ccccc1)[C@@H]1CC[C@]2(CCCO2)C[C@H]1N1CCCC1`, the inhibition is inactive: 1.34%.

Take `N#CCCN(C(=O)COC(=O)C(O)(c1ccccc1)c1ccccc1)c1ccc(F)cc1`: the inhibition is inactive: -10.4%.

With `CN(C(=O)Cc1ccc(Cl)c(Cl)c1)[C@H]1CC[C@@]2(CCCO2)C[C@@H]1N1CCCC1`, the inhibition was inactive: -6.12%.

`O=[N+]([O-])c1ccc2c(c1)nnn2O`: the inhibition was inactive: 3.39%.

As to `CN(C)C(=O)c1cc([N+](=O)[O-])cc2c1-c1c(cc([N+](=O)[O-])cc1[N+](=O)[O-])C2=O`, the inhibition is inactive: -8.2%.

For the molecule `O=[N+]([O-])c1ccc(-c2cc([N+](=O)[O-])c(O)c([N+](=O)[O-])c2)cc1`, the inhibition was inactive: -12.7%.

Consider `COc1cc(C(=O)NCC2(N3CCOCC3)CCCCC2)ccc1OCC(C)C`, for which the inhibition was inactive: -8.3%.

`O=[As](O)(c1ccc(O)cc1)c1ccccc1O`: the inhibition was inactive: -1.75%.

For `C[As](=O)(O)c1cccc(C(=O)O)c1`, the inhibition is inactive: 1.41%.

For `[N-]=[N+]=NC1CCCCC1NC(=O)c1cc([N+](=O)[O-])cc([N+](=O)[O-])c1` (configuration not stated), the inhibition was inactive: 6.27%.

Consider `Cc1ccc(OP(=O)(Nc2ccc([N+](=O)[O-])cn2)Oc2ccc(C)cc2)cc1`, for which the inhibition is inactive: -0.6%.

Take `Cc1ccc2nc3c(c(C)c2c1)CC(C(Cl)Cl)S3` (configuration not stated): the inhibition is inactive: 3.13%.

Consider `ClCCSc1nnc(-c2cccnc2)o1`, for which the inhibition was inactive: 2.79%.

In the case of `COC(=O)C1(C)COP(=O)(N2CCCCCC2)OC1` (configuration not stated), the inhibition was inactive: 2.93%.

As to `CC(C)c1ccc(OP(=O)(Nc2ccccn2)Oc2ccccc2F)cc1` (configuration not stated), the inhibition was inactive: 14.5%.

Turning to `CC(C)NC(=O)NP(=O)(Oc1ccccc1)Oc1ccccc1`, the inhibition was inactive: 4.36%.

On to `CCN(CC)C(=S)SC(NC=O)C(Cl)(Cl)Cl` (configuration not stated), for which the inhibition was inactive: 2.43%.

For `O=C(OC1CN2CCC1CC2)c1cccc2[nH]cnc12` (configuration not stated), the inhibition was inactive: 11.8%.

For the molecule `Cc1c2c(nc3ccccc13)SC(C(Cl)Cl)C2` (configuration not stated), the inhibition was inactive: -5.63%.

On to `Cc1cc(=O)[nH]c(N[N+](=O)[O-])n1`, for which the inhibition was inactive: 3.71%.

For `O=C(OC1CN2CCC1CC2)C12CC3CC(CC(C3)C1)C2` (configuration not stated), the inhibition was inactive: -4.85%.

Turning to `O=P1(N(CCCl)CCCl)Nc2ccccc2N1`, the inhibition was inactive: 10.2%.

With `O=P1(N(CCCl)CCCl)OCCCN1CCCl` (configuration not stated), the inhibition was inactive: 1.23%.

Turning to `COc1cc(I)ccc1[As](=O)(O)O`, the inhibition is inactive: 9.48%.

With `COc1ccc2nc(NP(=O)(c3ccccc3)c3ccccc3)sc2c1`, the inhibition was inactive: -19.2%.

Regarding `O=[N+]([O-])c1cc(Oc2ccc([N+](=O)[O-])cc2C(F)(F)F)cc([N+](=O)[O-])c1`, the inhibition is active: 24.7%.

With `COc1ccc(N/C(=N/P(=O)(N2CCOCC2)N2CCOCC2)N2CCOCC2)cc1`, the inhibition is inactive: 1.9%.

Regarding `COC(=O)C1(C)COP(=O)(N2CCCC2)OC1` (configuration not stated), the inhibition was inactive: 2.04%.

With `COP1(=S)c2c(C)nn(CCC#N)c2N=C(c2ccc(F)cc2)N1C` (configuration not stated), the inhibition is inactive: 2.35%.

For the molecule `O=C(O)C(=O)c1ccc(N(CCCl)CCCl)cc1`, the inhibition is inactive: -1.69%.

On to `O=C(Nc1ccncc1[N+](=O)[O-])c1ccc([N+](=O)[O-])cc1[N+](=O)[O-]`, for which the inhibition is inactive: -4.79%.

For the molecule `O=C(COc1ccccc1)OC1CN2CCC1CC2` (configuration not stated), the inhibition was inactive: 5.75%.

Regarding `O=C(OC1CN2CCC1CC2)c1cccc([N+](=O)[O-])c1` (configuration not stated), the inhibition was inactive: 4.77%.

With `CCOC(=O)c1ccc(NC(=O)C(C)(CCl)SC)cc1` (configuration not stated), the inhibition was inactive: -5.7%.

For the molecule `CCC(C)N(CC(C)C)C(=S)SC(NC(C)=O)C(Cl)(Cl)Cl` (configuration not stated), the inhibition was inactive: 5.74%.

Turning to `CCOC(=O)Nc1ccc([As](=O)(O)O)c(O)c1`, the inhibition was inactive: 4.68%.

Turning to `O=C(O)C(O)c1ccc(N(CCCl)CCCl)cc1` (configuration not stated), the inhibition was inactive: -5.7%.

Consider `CC1CCNP(=O)(N(CCCl)CCCl)O1` (configuration not stated), for which the inhibition is inactive: -0.66%.

On to `COP(=O)(OC)N1CC1c1ccccc1` (configuration not stated), for which the inhibition was inactive: -2.44%.

In the case of `Cc1cc(SC(NC(=O)c2ccccc2)C(Cl)(Cl)Cl)nc(C(C)C)n1` (configuration not stated), the inhibition is inactive: -4.46%.

In the case of `CCCCOc1ccc(C(=O)NCC2(N3CCCCC3)CCCCC2)cc1OC`, the inhibition was inactive: 3.28%.

For `CCOC(=O)Nc1cccc([As](=O)(O)O)c1`, the inhibition is inactive: 2.67%.

For `O=P(Nc1ccccn1)(c1cccc2ccccc12)c1cccc2ccccc12`, the inhibition is inactive: 6.7%.

`O=[N+]([O-])c1ccc(Nc2ccc(Oc3ccc([N+](=O)[O-])cc3[N+](=O)[O-])cc2)c([N+](=O)[O-])c1`: the inhibition is inactive: -1.1%.
